Assay results taken from US20240294551A1 (AMGEN INC., priority 2022, published 2024).

The chains behind the UniProt entries cited, without tags or fusion partners. A line that says so, or that is headed by a name, gives the form on record, which may keep a tag or linker. Residues count along the entry.
UniProt P01116, 1-164 with tags or gaps G12D limits assumed: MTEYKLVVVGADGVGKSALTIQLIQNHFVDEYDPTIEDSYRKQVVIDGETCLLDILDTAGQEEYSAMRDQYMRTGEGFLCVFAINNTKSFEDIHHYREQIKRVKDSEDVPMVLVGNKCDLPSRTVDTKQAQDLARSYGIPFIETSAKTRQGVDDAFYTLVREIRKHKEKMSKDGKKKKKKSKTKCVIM
UniProt P01116, 1-164 with tags or gaps C118A/G12D limits assumed: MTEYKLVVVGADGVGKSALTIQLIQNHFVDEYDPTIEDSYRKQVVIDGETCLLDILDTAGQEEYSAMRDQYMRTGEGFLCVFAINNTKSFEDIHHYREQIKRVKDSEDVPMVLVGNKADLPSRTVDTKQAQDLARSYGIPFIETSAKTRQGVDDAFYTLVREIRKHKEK

Key:
[1] = biological target: His-tagged KRAS G12D protein (Homo sapiens (Human), UniProt P01116, G12D); experiment: KRAS G12D TR-FRET Assay; details: read-out: KRAS G12D Binding IC50
Method: Compounds of interest were prepared in a dose-response titration in DMSO, and 80 nL were added via Labcyte Echo to each well of a 384-well plate (Perkin Elmer 6008280). The His-tagged KRAS G12D protein (Amgen) was diluted to 20 nM in Assay Buffer (20 mM HEPES, pH 7.4, 10 mM MgCl2, 50 mM NaCl, 0.1% BSA, 0.01% Tween-20, 10 μM GDP) and 2 μL was added to the appropriate wells of the 384-well plate. The plate was incubated for 30 minutes at room temperature. Biotinylated KRPep-2d substrate (Amgen) was diluted to 20 nM in Assay Buffer and 2 μL was added to all wells and incubated for 1 hour at room temperature. Detection Reagent (0.4 nM LANCE Eu-W1024 Anti-6×His (Perkin Elmer AD0401), 5 nM streptavidin-d2 (Cisbio 610SADLA)) was prepared in Assay Buffer, then 4 μL was added to the plate and incubated for 1 hour at room temperature. Plates were read using PerkinElmer EnVision (ex: 320 nm, em1: 665 nm, em2: 615 nm) and em1/em2 data was used to generate curve fits using a 4-parameter logistic model to calculate IC50 values.

[2] = biological target: GDP-bound KRAS protein (aa 1-169), containing both G12D and C118A amino acid substitutions (Homo sapiens (Human), UniProt P01116, C118A/G12D); experiment: KRAS G12D Coupled Nucleotide Exchange Assay; assay type: biochemical; details: read-out: KRAS G12D Coupled Exchange IC50
Method: KRAS G12D Coupled Nucleotide Exchange Assay
Following compound pre-incubation, purified SOS protein (aa 564-1049) and GTP (Roche 10106399001) were added to the assay wells and incubated for an additional 30 min. To determine the extent of inhibition of SOS-mediated nucleotide exchange, purified GST-tagged cRAF (aa 1-149), nickel chelate AlphaLISA acceptor beads (PerkinElmer AL108R), and AlphaScreen glutathione donor beads (PerkinElmer 6765302) were added to the assay wells and incubated for 10 minutes. The assay plates were then read on a PerkinElmer EnVision Multilabel Reader, using AlphaScreen® technology, and data were analyzed using a 4-parameter logistic model to calculate IC50 values.

[3] = tested on: Phosphorylation of ERK1/2 in AsPC-1 cells; experiment: Phospho-ERK1/2 MSD Assay; details: read-out: 2 h p-ERK (AsPC-1 cells), IC50
Method: AsPC-1 (ATCC® CRL-1682™) cells were cultured in RPMI 1640 Medium (ThermoFisher Scientific 11875093) containing 10% fetal bovine serum (ThermoFisher Scientific 16000044) and 1× penicillin-streptomycin-glutamine (ThermoFisher Scientific 10378016). Sixteen hours prior to compound treatment, AsPC-1 cells were seeded in 96-well cell culture plates at a density of 25,000 cells/well and incubated at 37° C., 5% CO2. A compound dose-response titration was diluted in growth media, added to appropriate wells of a cell culture plate, and then incubated at 37° C., 5% CO2 for 2 hours. Following compound treatment, cells were washed with ice-cold Dulbecco's phosphate-buffered saline, no Ca^2+ or Mg^2+ (ThermoFisher Scientific 14190144), and then lysed in RIPA buffer (50 mM Tris-HCl pH 7.5, 1% Igepal, 0.5% sodium deoxycholate, 150 mM NaCl, and 0.5% sodium dodecyl sulfate) containing protease inhibitors (Roche 4693132001) and phosphatase inhibitors (Roche 4906837001). Phosphorylation of ERK1/2 in compound-treated lysates was assayed using Phospho-ERK1/2 Whole Cell Lysate kits (Meso Scale Discovery K151DWD) according to the manufacturer's protocol. Assay plates were read on a Meso Scale Discovery Sector Imager 6000, and data were analyzed using a 4-parameter logistic model to calculate IC50 values.

AsPC-1 cells = experiment: AsPC-1 CTG Assay (CellTiter-Glo cell viability); details: read-out: G12D/C/V Cell Proliferation CTG (72 h) AsPC-1; AsPC-1, 72 h; first value of the cell
Method: AsPC-1 and SW620 CTG Assay Protocols
AsPC-1 (human pancreatic adenocarcinoma; ATCC CRL-1682) or SW620 (human colon adenocarcinoma; ATCC CCL-227) cells were cultured in RPMI 1640 medium containing 10% fetal bovine serum and 1× penicillin/streptomycin/L-glutamine. Cells were seeded in 384-well plates at a density of 3.33E+04 cells/mL and incubated at 37° C., 5% CO2, overnight. Serially-diluted compound or DMSO was added to the cells, and plates were incubated at 37° C., 5% CO2 for 72 h. Cell viability was measured using a CellTiter-Glo® Luminescent Cell Viability Assay kit (Promega) according to the manufacturer's protocol. The luminescence signal of treated samples was normalized to DMSO control, and data were analyzed using a 4-parameter logistic model to calculate IC50 values.

Row | IC50 [1] | IC50 [2] | IC50 [3] | IC50 (AsPC-1 cells) | Compound
1 | 569 nM | 413 nM | – | – | O=C1OCC2CC2c2c(Cl)cc3[nH]ncc3c2-c2ncc3c(nc(OC[C@@]45CCCN4C[C@H](F)C5)nc3c2F)N2CCC[C@H](C2)O1 (single isomer, unassigned) [117]
2 | 7 nM | 4 nM | 110 nM | 630 nM | O=C1OCC2CC2c2c(Cl)cc3[nH]ncc3c2-c2ncc3c(nc(OC[C@@]45CCCN4C[C@H](F)C5)nc3c2F)N2CCC[C@H](C2)O1 (single isomer, unassigned) [118]
3 | 2120 nM | 1860 nM | – | – | Cc1cc2[nH]ncc2c2c1C1CC1COC(=O)O[C@@H]1CCCN(C1)c1nc(OC[C@@]34CCCN3C[C@H](F)C4)nc3c(F)c-2ncc13 (single isomer, unassigned) [119]
4 | 10 nM | 8 nM | 229 nM | – | Cc1cc2[nH]ncc2c2c1C1CC1COC(=O)O[C@@H]1CCCN(C1)c1nc(OC[C@@]34CCCN3C[C@H](F)C4)nc3c(F)c-2ncc13 (single isomer, unassigned) [120]
